# Source: ChEMBL document CHEMBL3886333, “Buprenorphine analogs” (2015)
# Experiments:
# [1] = target: T1, Kappa-type opioid receptor (Homo sapiens, UniProt P41145); assay: Radioligand Dose-Displacement Binding Assays (kappa): Membranes from recombinant HEK-293 cells expressing the human κ opioid receptor (cloned in house) were prepared by lysing cells in ice cold hypotonic buffer (2.5 mM MgCl2,50 mM HEPES, pH 7.4) (10 mL/10 cm dish) followed by homogenization with a tissue grinder/Teflon pestle. Membranes were collected by centrifugation at 30,000×g for 15 min at 4°; conditions: sf9
# Mu-type opioid receptor [2] = target: T2, Mu-type opioid receptor (Homo sapiens, UniProt P35372); assay: (§1) GTPgammaS Functional Assay (mu): [35S]GTPgammaS functional assays were conducted using freshly thawed pt-receptor membranes prepared in-house from a cell line expressing recombinant mu opioid receptor in a HEK-293, CHO cell background, or purchased from a commercial source (Perkin Elmer, Shelton, Conn.; or DiscovRx, Fremont, Calif.). Assay reactions were prepared by sequentially adding the followi
# [3] = target: T1, Kappa-type opioid receptor; assay: (§2) GTPgammaS Functional Assay (kappa): Membranes from recombinant HEK-293 cells, CHO cells expressing the recombinant human kappa opioid receptor (kappa) were prepared by lysing cells in ice cold hypotonic buffer (2.5 mM MgCl2, 50 mM HEPES, pH 7.4) (10 mL/10 cm dish) followed by homogenization with a tissue grinder/Teflon pestle. Functional [35S]GTPgammaS binding assays were conducted as follows. kap
# Mu-type opioid receptor [4] = target: T2, Mu-type opioid receptor; assay: Radioligand Dose-Displacement Binding Assays (mu): Radioligand dose-displacement binding assays for mu-opioid receptors used 0.3 nM [3H]-diprenorphine (Perkin Elmer, Shelton, Conn.), with […] membrane protein/well in a final volume of 500 ul binding buffer (10 mM MgCl2,1 mM EDTA, 5% DMSO, 50 mM HEPES, pH 7.4). Reactions were carried out in the absence or presence of increasing concentrations of u
# Mu-type opioid receptor [5] = target: T2, Mu-type opioid receptor; assay: as §1, with “(U-2):” for “(mu):”, “U-2 OS” for “HEK-293, CHO”, “following re” for “followi”
# [6] = target: T1, Kappa-type opioid receptor; assay: as §2, with “Functional Assay:” for “Functional Assay (kappa):”, “recombinant U-2 OS” for “recombinant HEK-293 cells, CHO”, “follows. kappa opioid receptor m” for “follows. kap”
Compound,Ki [1] [µM],EC50 (Mu-type opioid receptor [2]) [µM],EC50 [3] [µM],Ki (Mu-type opioid receptor [4]) [µM],EC50 (Mu-type opioid receptor [5]) [µM],EC50 [6] [µM]
COc1ccc2c3c1O[C@H]1[C@@]4(OC)CC[C@@]5(C[C@@H]4C(N[C@@H](C(N)=O)c4ccccc4)c4ccccc4)[C@@H](C2)N(CC2CC2)CC[C@]315 (stereo not given in full),0.0218,15,0.771,–,–,–
COc1ccc2c3c1O[C@H]1[C@@]4(OC)CC[C@@]5(C[C@@H]4C(NCC(=O)O)c4ccccc4)[C@@H](C2)N(CC2CC2)CC[C@]315 (stereo not given in full),–,0.174,0.745,–,–,–
COc1ccc2c3c1O[C@H]1[C@@]4(OC)CC[C@@]5(C[C@@H]4C(N[C@H](C(N)=O)c4ccccc4)c4ccccc4)[C@@H](C2)N(CC2CC2)CC[C@]315 (stereo not given in full),–,4.98,–,–,–,–
COc1ccc2c3c1O[C@H]1[C@@]4(OC)CC[C@@]5(C[C@@H]4C(NC(C(=O)O)c4ccccc4)c4ccccc4)[C@@H](C2)N(CC2CC2)CC[C@]315 (stereo not given in full),0.0513,0.656,1.77,–,–,–
COc1ccc2c3c1O[C@H]1[C@@]4(OC)CC[C@@]5(C[C@@H]4C(NC(C)C(N)=O)c4ccccc4)[C@@H](C2)N(CC2CC2)CC[C@]315 (stereo not given in full),0.0401,0.457,0.289,0.077,0.053,–
COc1ccc2c3c1O[C@H]1[C@@]4(OC)CC[C@@]5(C[C@@H]4C(NC(C)C(=O)O)c4ccccc4)[C@@H](C2)N(CC2CC2)CC[C@]315 (stereo not given in full),0.138,0.379,1.64,–,0.172,0.399
COc1ccc2c3c1O[C@H]1[C@@]4(OC)CC[C@@]5(C[C@@H]4[C@](O)(CC(O)CO)c4ccccc4)[C@@H](C2)N(CC2CC2)CC[C@]315 (stereo not given in full),–,–,0.122,–,–,–
